Amino acid sequences for entries named in this document (tags omitted).
UniProt O43613, whole entry, species assumed: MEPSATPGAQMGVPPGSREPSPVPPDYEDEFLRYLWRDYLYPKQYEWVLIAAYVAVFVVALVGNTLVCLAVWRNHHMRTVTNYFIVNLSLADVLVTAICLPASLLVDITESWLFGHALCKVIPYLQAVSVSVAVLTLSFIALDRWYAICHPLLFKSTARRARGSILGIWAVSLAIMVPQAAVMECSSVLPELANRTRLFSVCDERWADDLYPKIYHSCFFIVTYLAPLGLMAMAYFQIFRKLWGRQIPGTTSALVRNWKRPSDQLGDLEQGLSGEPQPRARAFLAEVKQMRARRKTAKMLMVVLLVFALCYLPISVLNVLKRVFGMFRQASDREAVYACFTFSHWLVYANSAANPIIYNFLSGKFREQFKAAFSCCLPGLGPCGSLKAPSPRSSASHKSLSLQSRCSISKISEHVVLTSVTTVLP

In patent EP3442966B1, “NOVEL N-[(PYRIMIDINYLAMINO)PROPANYL]- AND N-[(PYRIDINYLAMINO)PROPANYL]ARYLCARBOXAMIDES” (Boehringer Ingelheim International GmbH, priority 2016, dated 2017):

Target: OX1R (Homo sapiens, UniProt O43613)
Experiment: OX1R assay of WO2013/187466 (fluorescence measurement of intracellular Ca2+ changes)
Assay type: cell-based
Conditions: ratio of the IC50 values described in WO2013/187466

CCN(C(=O)c1cc(F)ccc1-c1ncccn1)[C@@H](C)Cn1nnc(-c2ccc(F)cc2)n1 [Example 70 in WO2013/187466]
OX2R IC50 / OX1R IC50: 411
